From article PMC10453637, “In Vivo, High-Throughput Selection of Thermostable Cyclohexanone Monooxygenase (CHMO)” (Catalysts (Basel, Switzerland), 2020)

System: O=C1CCCCC1
Experiment: purified protein
Conditions: apparent, 0.3 mM NADPH, 50 mM sodium phosphate pH 7.7, 25 °C

**Q.** How did the Km turn out when “Ac CHMO (cyclohexanone monooxygenase) (Acinetobacter johnsonii; A245G/A288V)” was run?
**A.** 5.64 ± 0.48 µM
